From PubChem BioAssay AID1273 (Columbia University Molecular Screening Center, 2008) come the findings set out here.

This is a selection; strong and weak results do not stand in their true shares. Activity calls are given as the source filed them.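 Rule for the calls: active = inhibition above the mean plus 3 SD, with well images judged a real hit on visual review (cut at about 60% in these data, passing the limit was not always enough); inconclusive = inhibition over the cutoff but images rejected on review; inactive = inhibition not above the cutoff.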

This assay is described as follows: inhibitors of insulin promoter-driven GFP, primary screen, imaging, TRM-6 cells (human fetal islet line), eGFP reporter, cell count (AID 1273). As to conditions: at 2 µM, hits give high values, reporter expression induced with tamoxifen.
As usually defined, the inhibition is the relative decrease from the control value, in per cent. For the compound `COc1ccc(N/C(=N/P(=O)(N2CCOCC2)N2CCOCC2)N2CCOCC2)cc1`, the inhibition is inactive: -45.5%.

As for `Cc1c2c(nc3ccccc13)SC(C(Cl)Cl)C2` (centres undefined), the inhibition is inactive: -21.4%.

On to `O=C(OC1CN2CCC1CC2)C12CC3CC(CC(C3)C1)C2` (centres undefined), for which the inhibition was inactive: -7.14%.

In the case of `CCN(CC)CCCOC(=O)C(O)(c1ccccc1)c1ccccc1`, the inhibition is inactive: 6.67%.

Take `Cc1cc(=O)[nH]c(N[N+](=O)[O-])n1`: the inhibition was inactive: 27.3%.

On to `COc1ccc2nc(NP(=O)(c3ccccc3)c3ccccc3)sc2c1`, for which the inhibition was inactive: -25%.

Turning to `CCOC(=O)c1ccc(NP(C)(=O)Oc2ccccc2)cc1` (centres undefined), the inhibition is inactive: 26.7%.

`ClCCSc1nnc(-c2cccnc2)o1`: the inhibition was inactive: 12.9%.

Take `CCN(CC)C(=S)SC(NC=O)C(Cl)(Cl)Cl` (centres undefined): the inhibition is inactive: 32.6%.

On to `COc1ccc(OP(C)(=O)Nc2cccc(F)c2)cc1` (centres undefined), for which the inhibition was inactive: -12.3%.

Take `CC(C)(C)c1ccc(OP(C)(=O)Nc2ccc(SC(F)(F)F)cc2)cc1` (centres undefined): the inhibition is inactive: -7.41%.

As to `Cc1ccc2nc3c(c(C)c2c1)CC(C(Cl)Cl)S3` (centres undefined), the inhibition was inactive: -19.4%.

As for `CP(=S)(Nn1cnnc1)Oc1ccccc1` (centres undefined), the inhibition was inactive: 47.6%.

`COc1ccccc1OP(C)(=O)Nc1ccccc1` (centres undefined): the inhibition was inactive: 0%.

As to `CP(=O)(Nc1ccccc1Br)Oc1ccccc1` (centres undefined), the inhibition was inactive: 0%.

`CCOP(C)(=S)SCC(=O)NC(C)C(=O)O` (centres undefined): the inhibition was inactive: 0%.

With `CCOC(=O)c1ccc(NP(C)(=O)Oc2ccc(OC)cc2)cc1` (centres undefined), the inhibition was inactive: 18.4%.

`CCC(C)N(CC(C)C)C(=S)SC(NC(C)=O)C(Cl)(Cl)Cl` (centres undefined): the inhibition was inactive: -18.8%.

As to `CP(=O)(Nc1ccccn1)Oc1ccc(Cl)cc1` (centres undefined), the inhibition was inactive: 48.6%.

On to `COP1(=S)c2c(C)nn(CCC#N)c2N=C(c2ccc(F)cc2)N1C` (centres undefined), for which the inhibition is inactive: -42.9%.

Take `CP(=O)(NC(=O)Nc1ccccc1)Oc1ccccc1` (centres undefined): the inhibition is inactive: -18.2%.

Consider `Cc1cc(C)cc(OP(C)(=O)Nc2ccc(SC(F)(F)F)cc2)c1` (centres undefined), for which the inhibition was inactive: 29.6%.

`Cc1nc2ccc3ccccc3c2s1.O=[N+]([O-])c1cc([N+](=O)[O-])c(O)c([N+](=O)[O-])c1`: the inhibition was inactive: 6.06%.

On to `CC1(CBr)Cn2c(nc3ccccc3c2=O)S1` (centres undefined), for which the inhibition is inactive: 2.33%.

Regarding `CN1CCCCC1COC(=O)C1(O)c2ccccc2CCc2ccccc21` (centres undefined), the inhibition was inactive: 9.38%.

On to `COc1ccccc1OP(C)(=O)Nc1c(C)cccc1C` (centres undefined), for which the inhibition is inactive: -2.78%.

Consider `CCCOc1ccc(NP(C)(=O)Oc2ccc(Cl)cc2)cc1` (centres undefined), for which the inhibition was inactive: -33.3%.

As for `CP(=O)(Nc1ccc(SC(F)(F)F)cc1)Oc1ccccc1` (centres undefined), the inhibition is inactive: 6.67%.

With `Cc1ccc(OCC(=O)OC2CN3CCC2CC3)cc1` (centres undefined), the inhibition is inactive: 7.89%.
